Results taken from BindingDB's records for PubMed 11082457 (Centre De Recherches De Croissy, 2000).

Target: T1, Nischarin (Bos mutus, UniProt L8IEU8)
T1 sequence (L8IEU8 whole entry): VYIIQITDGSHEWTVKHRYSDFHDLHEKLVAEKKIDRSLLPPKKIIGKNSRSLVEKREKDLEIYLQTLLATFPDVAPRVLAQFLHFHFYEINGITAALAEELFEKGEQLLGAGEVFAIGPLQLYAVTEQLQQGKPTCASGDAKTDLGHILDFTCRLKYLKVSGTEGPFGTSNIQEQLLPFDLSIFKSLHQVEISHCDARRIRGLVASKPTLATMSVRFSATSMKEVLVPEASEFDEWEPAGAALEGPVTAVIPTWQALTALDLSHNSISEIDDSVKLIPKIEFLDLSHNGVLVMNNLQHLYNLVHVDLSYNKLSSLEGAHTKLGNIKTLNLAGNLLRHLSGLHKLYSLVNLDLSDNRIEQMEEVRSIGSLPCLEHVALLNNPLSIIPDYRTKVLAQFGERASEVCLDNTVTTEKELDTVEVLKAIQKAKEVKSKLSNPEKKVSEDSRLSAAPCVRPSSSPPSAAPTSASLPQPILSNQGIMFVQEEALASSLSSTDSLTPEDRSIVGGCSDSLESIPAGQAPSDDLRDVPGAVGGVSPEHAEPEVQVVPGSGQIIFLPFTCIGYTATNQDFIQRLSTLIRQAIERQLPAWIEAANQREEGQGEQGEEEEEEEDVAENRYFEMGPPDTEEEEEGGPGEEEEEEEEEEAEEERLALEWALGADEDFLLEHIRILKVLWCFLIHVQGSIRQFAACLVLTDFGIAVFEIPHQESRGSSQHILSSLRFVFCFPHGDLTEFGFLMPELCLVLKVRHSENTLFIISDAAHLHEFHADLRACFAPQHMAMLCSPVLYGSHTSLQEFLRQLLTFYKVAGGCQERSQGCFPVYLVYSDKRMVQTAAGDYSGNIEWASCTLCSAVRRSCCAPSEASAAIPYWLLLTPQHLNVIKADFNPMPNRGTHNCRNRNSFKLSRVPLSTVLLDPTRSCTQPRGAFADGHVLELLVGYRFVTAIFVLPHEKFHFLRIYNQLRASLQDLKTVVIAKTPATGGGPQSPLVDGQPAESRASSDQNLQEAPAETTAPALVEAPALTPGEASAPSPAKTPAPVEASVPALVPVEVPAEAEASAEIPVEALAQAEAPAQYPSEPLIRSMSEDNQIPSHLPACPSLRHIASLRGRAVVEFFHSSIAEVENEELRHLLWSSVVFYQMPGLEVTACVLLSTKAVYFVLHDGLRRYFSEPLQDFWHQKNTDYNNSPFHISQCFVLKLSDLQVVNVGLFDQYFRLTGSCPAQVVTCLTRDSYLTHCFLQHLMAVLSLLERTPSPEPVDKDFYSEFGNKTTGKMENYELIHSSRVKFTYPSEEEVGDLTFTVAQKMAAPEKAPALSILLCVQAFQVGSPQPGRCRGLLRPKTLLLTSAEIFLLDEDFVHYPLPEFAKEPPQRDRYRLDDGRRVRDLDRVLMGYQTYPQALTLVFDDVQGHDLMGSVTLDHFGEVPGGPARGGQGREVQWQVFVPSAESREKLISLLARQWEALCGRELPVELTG

For `Clc1cccc(Cl)c1N=C1NCCN1` [2-(2,6-dichloroanilino)-2-imidazoline], the Ki was 31.6 nM.
